{
  "source": "paper PMC7874389",
  "about": "(Nature, 2020)",
  "assay_type_in_all_cases": "in vivo",
  "key": {"larval zebrafish [1]": {"tested_on": "larval zebrafish", "experiment": "Larval zebrafish developmental toxicity", "conditions": "100 μM, 2 and 5 dpf"}, "larval zebrafish [2]": {"tested_on": "larval zebrafish", "experiment": "Larval zebrafish heart rate and arrhythmia", "conditions": "immobilized 7 dpf larvae, 50 μM"}, "[3]": {"tested_on": "larval zebrafish expressing GCaMP5", "experiment": "Larval zebrafish seizure experiments", "conditions": "IBO and TBG 50 μM, PTZ 15 mM, 1 h"}, "larval zebrafish [4]": {"tested_on": "larval zebrafish", "experiment": "Larval zebrafish behavioral profiling", "conditions": "1–200 μM, 7 dpf, battery of light and acoustic stimuli"}},
  "data": [
    {"substance": "ibogaine", "values": [
      {"measurement": "malformation and mortality", "setting": "larval zebrafish [1]", "result": "significantly increased malformations and mortality"},
      {"measurement": "heart rate (bradycardia)", "setting": "larval zebrafish [2]", "result": "decreased heart rate"},
      {"measurement": "seizurogenic potential (neural activity, GCaMP5 fluorescence)", "setting": "[3]", "result": "Neither ibogaine nor TBG produced excessive neural activity"},
      {"measurement": "behavioral profile versus vehicle and lethal (eugenol) controls", "setting": "larval zebrafish [4]", "result": "produced behavioral profiles similar to the lethal control"}
    ]}
  ]
}
